Assay results from patent publication US7576105B2, “Benzyl substituted (piperidin-4-yl)aminobenzamido derivatives” (priority 2002, dated 2009).

Sequences of proteins named here, by UniProt entry; tags and fusion partners are left off.
UniProt P33535, whole entry: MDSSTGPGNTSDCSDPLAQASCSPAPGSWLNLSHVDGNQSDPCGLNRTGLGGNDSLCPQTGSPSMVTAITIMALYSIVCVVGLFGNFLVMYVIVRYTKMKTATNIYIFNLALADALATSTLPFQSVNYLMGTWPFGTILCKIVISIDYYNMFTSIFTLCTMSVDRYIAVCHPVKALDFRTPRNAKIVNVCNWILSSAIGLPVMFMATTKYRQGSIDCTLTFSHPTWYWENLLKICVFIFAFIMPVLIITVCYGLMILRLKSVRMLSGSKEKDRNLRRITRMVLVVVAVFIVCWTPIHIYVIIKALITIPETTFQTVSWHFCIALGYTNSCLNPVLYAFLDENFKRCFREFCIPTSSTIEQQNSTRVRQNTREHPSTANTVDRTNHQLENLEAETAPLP

Experiments:
δ-opioid receptor = δ-opioid receptor (Rattus norvegicus, UniProt P33533); experiment: Rat brain δ-opioid receptor binding assay
μ-opioid receptor = μ-opioid receptor (Rattus norvegicus, UniProt P33535); experiment: Rat brain μ-opioid receptor binding assay

SMILES	δ-Opioid Receptor Binding % Inhibition @ 1 μM (δ-opioid receptor; 1 μM test compound, rat forebrain particulate preparation, [3H]DPDPE, 25° C.) [%]	Ki (δ-opioid receptor) [nM]	Ki (μ-opioid receptor) [nM]
CCCN1CCC(N(Cc2ccccc2OC)c2ccc(C(=O)N(CC)CC)cc2)CC1	17	–	–
CCCN1CCC(N(Cc2cccc(Cl)c2)c2ccc(C(=O)N(CC)CC)cc2)CC1	–	50.4	2140
CCCN1CCC(N(Cc2ccccc2)c2ccc(C(=O)N(CC)CC)cc2)CC1 [Compound 7, N,N-Diethyl-4-[benzyl(1-propylpiperidin-4-yl)amino]benzamide]	–	26.2	901
CCN(CC)C(=O)c1ccc(N(Cc2ccccc2)C2CCNCC2)cc1 [Compound 8, N,N-Diethyl-4-[benzyl(piperidin-4-yl)amino]benzamide]	–	71.1	≥ 10000
CCCN1CCC(N(Cc2cccc(O)c2)c2ccc(C(=O)N(CC)CC)cc2)CC1 [Compound 2, N,N-Diethyl-4-[3-hydroxybenzyl(1-propylpiperidin-4-yl)amino]benzamide]	–	14.6	640
CCN(CC)C(=O)c1ccc(N(Cc2ccccc2)C2CCN(C)CC2)cc1	–	109	–
C=CCN1CCC(N(Cc2ccccc2)c2ccc(C(=O)N(CC)CC)cc2)CC1 [Compound 9, N,N-Diethyl-4-[benzyl(1-allylpiperidin-4-yl)amino]benzamide]	–	73	≥ 10000
CCCN1CCC(N(Cc2cccnc2)c2ccc(C(=O)N(CC)CC)cc2)CC1	–	599	–
